Tests used:
[1] = refractive index (Na D-line) (dimensionless); xn = mol fraction of the nth substance listed; details: 101 kPa, Liquid, Standard Abbe refractometry
[2] = relative permittivity at zero frequency (dimensionless); xn = mol fraction of the nth substance listed; details: 101 kPa, Liquid, Parallel plate capacitor

CCCCOCCCC [dibutyl ether] + CCCCCCCC
Details	refractive index, 293.15 K	refractive index, 298.15 K	refractive index, 303.15 K	relative permittivity at zero frequency, 288.15 K	relative permittivity at zero frequency, 293.15 K	relative permittivity at zero frequency, 298.15 K	relative permittivity at zero frequency, 303.15 K	relative permittivity at zero frequency, 308.15 K
[1], x1 = 0.1014	1.3979	1.3955	1.3929	–	–	–	–	–
[1], x1 = 0.2033	1.3979	1.3955	1.3929	–	–	–	–	–
[1], x1 = 0.306	1.398	1.3956	1.393	–	–	–	–	–
[1], x1 = 0.406	1.3981	1.3957	1.3931	–	–	–	–	–
[1], x1 = 0.5063	1.3982	1.3959	1.3932	–	–	–	–	–
[1], x1 = 0.6002	1.3983	1.396	1.3934	–	–	–	–	–
[1], x1 = 0.7036	1.3985	1.3962	1.3935	–	–	–	–	–
[1], x1 = 0.8029	1.3987	1.3964	1.3937	–	–	–	–	–
[1], x1 = 0.9003	1.3989	1.3966	1.3939	–	–	–	–	–
[2], x1 = 0.1014	–	–	–	2.074	2.065	2.056	2.047	2.038
[2], x1 = 0.2033	–	–	–	2.18	2.168	2.155	2.144	2.133
[2], x1 = 0.306	–	–	–	2.292	2.278	2.263	2.249	2.235
[2], x1 = 0.406	–	–	–	2.405	2.388	2.371	2.353	2.337
[2], x1 = 0.5063	–	–	–	2.524	2.504	2.484	2.464	2.444
[2], x1 = 0.6002	–	–	–	2.621	2.617	2.594	2.57	2.548
[2], x1 = 0.7036	–	–	–	2.775	2.747	2.719	2.692	2.667
[2], x1 = 0.8029	–	–	–	2.908	2.876	2.844	2.814	2.785
[2], x1 = 0.9003	–	–	–	3.043	3.007	2.972	2.938	2.905

CCCCOCCCC [dibutyl ether] + CCCCCO
Details	refractive index, 293.15 K	refractive index, 298.15 K	refractive index, 303.15 K	relative permittivity at zero frequency, 288.15 K	relative permittivity at zero frequency, 293.15 K	relative permittivity at zero frequency, 298.15 K	relative permittivity at zero frequency, 303.15 K	relative permittivity at zero frequency, 308.15 K
[1], x2 = 0.1104	1.4001	1.3976	1.3958	–	–	–	–	–
[1], x2 = 0.1877	1.4011	1.3985	1.3968	–	–	–	–	–
[1], x2 = 0.3047	1.4021	1.3995	1.3979	–	–	–	–	–
[1], x2 = 0.4064	1.4031	1.4008	1.3989	–	–	–	–	–
[1], x2 = 0.5075	1.4042	1.4017	1.4001	–	–	–	–	–
[1], x2 = 0.6034	1.4053	1.4029	1.4013	–	–	–	–	–
[1], x2 = 0.7038	1.4065	1.4041	1.4026	–	–	–	–	–
[1], x2 = 0.8018	1.4077	1.4054	1.4038	–	–	–	–	–
[1], x2 = 0.9048	1.4089	1.4067	1.4052	–	–	–	–	–
[2], x2 = 0.1104	–	–	–	3.61	3.556	3.502	3.449	3.399
[2], x2 = 0.1877	–	–	–	4.008	3.939	3.871	3.805	3.741
[2], x2 = 0.3047	–	–	–	4.628	4.528	4.431	4.338	4.249
[2], x2 = 0.4064	–	–	–	5.426	5.285	5.147	5.015	5.018
[2], x2 = 0.5075	–	–	–	6.482	6.281	6.087	5.901	5.725
[2], x2 = 0.6034	–	–	–	7.776	7.505	7.242	6.992	6.752
[2], x2 = 0.7038	–	–	–	9.464	9.112	8.768	8.437	8.123
[2], x2 = 0.8018	–	–	–	11.446	11.011	10.583	10.169	9.771
[2], x2 = 0.9048	–	–	–	13.846	13.328	12.812	12.313	11.828

From the NIST ThermoML archive (doi:10.1016/j.tca.2012.05.036)
